# According to patent publication US12357701B2, “Anti-HER2 biparatopic antibody-drug conjugates and methods of use” (Zymeworks BC Inc., priority 2018, dated 2025):
# Where “and” joins values, the source holds several entries; their conditions need not be identical. Equal values may be shown once.
# Assay: GLP toxicity study of v21252
# Type: in vivo, cynomolgus monkeys
smiles,measurement,setting,value
"CCC(C)[C@@H]([C@@H](CC(=O)N1CCC[C@H]1[C@H](OC)[C@@H](C)C(=O)NS(=O)(=O)c1ccc(N)cc1)OC)N(C)C(=O)[C@@H](NC(=O)[C@H](C(C)C)N(C)C)C(C)C (stereo in doubt) [Compound 9, (S)—N-((3R,4S,5R)-1-((S)-2-((1R,2R)-3-((4-aminophenyl)sulfonamido)-1-methoxy-2-methyl-3-oxopropyl)pyrrolidin-1-yl)-3-methoxy-5-methyl-1-oxoheptan-4-yl)-2-((S)-2-(dimethylamino)-3-methylbutanamido)-N,3-dimethylbutanamide]",toxin (Compound 9) serum concentration,"one female, v21252 12 mg/kg, Day 43, 72 hr post dose",0.513 ng/mL
same,toxin (Compound 9) serum concentration,"one male, v21252 18 mg/kg, Day 29, 1 hr following SOI",0.532 ng/mL
same,toxin (Compound 9) serum concentration,"two males and two females, respectively, v21252 18 mg/kg, Day 43, 24 hr following SOI",0.555 ng/mL and 0.505 ng/mL and 0.556 ng/mL and 0.653 ng/mL
